## Yeast mating assay 2: variants of the scFv Ab-91

Binding partner: SARS-CoV-2 spike HR2 peptide, sequence PDVDLGDISGINAS.

Parent: Ab-91, a human scFv built as VL, a 15-residue (Gly4Ser)3 linker, VH. Only the CDRs of the heavy chain vary.
VL: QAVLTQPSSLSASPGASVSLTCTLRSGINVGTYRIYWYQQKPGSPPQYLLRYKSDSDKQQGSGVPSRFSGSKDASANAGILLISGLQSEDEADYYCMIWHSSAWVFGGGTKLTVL
VH: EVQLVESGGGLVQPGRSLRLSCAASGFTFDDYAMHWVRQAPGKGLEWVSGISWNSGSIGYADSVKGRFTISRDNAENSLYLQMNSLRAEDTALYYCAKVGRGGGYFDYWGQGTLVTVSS

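The parent was found by panning a naive human phage display library on the peptide. Library AAYL51 holds single substitutions and randomly drawn double and triple substitutions in the CDRs. The scFvs were displayed on barcoded MATa yeast, the peptide on MATalpha yeast. Binding brings cells together so that they mate, and sequencing counts the barcode pairs among the diploids. The ratio of observed to expected reads was calibrated, replicate by replicate, on BCL2-family standards whose Kd was known from biolayer interferometry. Each pool was mated in three replicate cultures.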

Changes read parent residue, position, new residue, counted from the first residue of the VH shown. Values are log10 of the apparent Kd in nM; lower means stronger binding. A mean of the replicates is given; it leaves out those without a signal. Where no diploid with the target was found in that replicate, the entry reads "n.d.": below detection, most likely a poor binder, though not proof of it. Nonspecific signal, from three strains lacking the peptide, appeared in 21% of pairings of library AAYL51, centred on 4.54 (5% of these signals below 3.26); values are not corrected for it. The control count says in how many pairings with the empty strains this scFv gave a signal, with their mean in brackets. For reference, the parent read 1.86 as the reference entry and 0.88 as a member of this library.

changes	replicates, log10 nM	log10 Kd (nM), mean	empty controls
G26N H35M V64H	n.d. n.d. n.d.	n.d.	1/9 (3.19)
V99C R101H G103M	5.13 n.d. n.d.	5.13	3/9 (3.93)
I51N I58V A61G	n.d. n.d. n.d.	n.d.	1/9 (4.61)
M34D I58L	n.d. n.d. n.d.	n.d.	0/9
S55Y G100C D107Y	n.d. 4.00 n.d.	4.00	1/9 (4.84)
A61M G102H F106R	5.75 n.d. 5.16	5.46	2/9 (4.58)
V99A G102F G104V	1.37 1.77 1.07	1.40	8/9 (4.81)
A33C G50V D107C	n.d. n.d. n.d.	n.d.	1/9 (4.31)
W53M G59Y G100D	3.75 4.93 n.d.	4.34	0/9
H35W V99T R101D	n.d. n.d. n.d.	n.d.	1/9 (3.37)
F27C Y32C A33G	3.34 2.78 3.54	3.22	0/9
S52G Y105N D107R	n.d. n.d. n.d.	n.d.	1/9 (4.01)
S57E A61G Y105V	1.51 0.74 0.32	0.86	1/9 (1.91)
Y32N G59L G102D	n.d. n.d. n.d.	n.d.	1/9 (4.14)
F27H F29R Y60A	n.d. n.d. n.d.	n.d.	3/9 (5.09)
S55K A61G	3.40 4.49 3.30	3.73	1/9 (5.66)
G56T G100Y G104N	n.d. n.d. n.d.	n.d.	1/9 (3.01)
Y32I S63E G102L	3.74 4.55 n.d.	4.14	2/9 (5.44)
G50N D62E G100E	n.d. 5.93 n.d.	5.93	1/9 (3.86)
F27C A61L	3.50 4.45 n.d.	3.97	1/9 (3.87)
D30R D31M I51P	n.d. n.d. 4.63	4.63	3/9 (5.12)
D31A I58K G104I	n.d. n.d. 4.39	4.39	3/9 (3.95)
S57P G103Y Y108I	4.63 n.d. n.d.	4.63	4/9 (4.40)
Y60E V99G Y105T	n.d. n.d. n.d.	n.d.	2/9 (4.44)
I51Q G56I V99G	n.d. n.d. n.d.	n.d.	0/9
H35V V64E G100Q	4.49 n.d. n.d.	4.49	2/9 (4.20)
Y60N V64S Y108E	n.d. n.d. n.d.	n.d.	0/9
A33D Y60W G102T	5.10 4.13 n.d.	4.62	5/9 (4.87)
I58F G59C D107I	n.d. n.d. n.d.	n.d.	1/9 (3.29)
G26D F27L I51N	n.d. n.d. n.d.	n.d.	0/9
M34H Y60K F106N	n.d. n.d. n.d.	n.d.	3/9 (4.44)
W53P G59Q G100I	n.d. n.d. n.d.	n.d.	0/9
G50K G56I S57W	4.44 n.d. 4.86	4.65	2/9 (4.54)
F29A H35M A61I	n.d. n.d. n.d.	n.d.	1/9 (5.02)
G26W N54F S57F	4.39 5.38 n.d.	4.88	4/9 (4.83)
D31V A61W G104A	4.56 n.d. n.d.	4.56	4/9 (4.64)
H35I S63W G103N	n.d. n.d. n.d.	n.d.	0/9
A61D	1.52 1.32 0.80	1.21	1/9 (3.29)
T28L G56K I58K	n.d. n.d. n.d.	n.d.	1/9 (2.67)
T28S H35Y G102S	n.d. n.d. n.d.	n.d.	4/9 (4.11)

The first 5 variants above that were never detected:

changes	replicates, log10 nM	log10 Kd (nM), mean	empty controls
G26N H35M V64H	n.d. n.d. n.d.	n.d.	1/9 (3.19)
I51N I58V A61G	n.d. n.d. n.d.	n.d.	1/9 (4.61)
M34D I58L	n.d. n.d. n.d.	n.d.	0/9
A33C G50V D107C	n.d. n.d. n.d.	n.d.	1/9 (4.31)
H35W V99T R101D	n.d. n.d. n.d.	n.d.	1/9 (3.37)

From the AlphaSeq antibody data of Engelhart et al. 2022 (doi:10.1038/s41597-022-01779-4), copy in the FLAb collection.